Melting point values, as collected for the OPERA models

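OPERA's authors assembled the values from existing databases and did not measure them anew. One number stands for a compound and property, with no spread given. Conditions of the individual experiments are not part of the data. Where a salt, mixture or single isomer is drawn, the source does not say that exactly this form was tested. Some entries may be limits or estimates that an upstream database listed as plain numbers.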

The melting point is given in degrees Celsius.

Listed for CCOc1ccc(NC(C)=O)cc1N: mp 126.1 °C. Cn1c(=S)[nH]c2sc3c(c2c1=O)CCCC3 is reported with mp 305 °C. Listed for Brc1ccc2[nH]c3c(c2c1)CNCC3: mp 217 °C. Listed for O=S(=O)(Cl)c1ccc2oc3ccccc3c2c1: mp 135 °C. CCCCCCCCCCCCCOC(=O)CCCCC(=O)OCCCCCCCCCCCCC has mp -58 °C. The entry for CCN(CC)C(=O)c1ccc(N)cc1 lists mp 119 °C. The entry for Cc1ccc(-n2cnnc2SCC(=O)O)cc1 lists mp 219 °C. O=C(O)c1cnns1 has mp 104 °C.

The entry for O=Cc1c(-c2ccccc2)nc2ccccn12 lists mp 145 °C. Cc1nn(-c2ccccc2)c(N2CCCCC2)c1C=O has mp 76 °C. Nc1ccc(-c2cccc(C(F)(F)F)c2)cc1 has mp 66 °C. N#Cc1cc([N+](=O)[O-])cnc1Cl is reported with mp 120 °C. For CC(CCC(N)=O)n1nnc2ccccc21 (configuration not stated) the data give mp 102 °C. For COc1ccc(NC(=O)OC(C)(C)C)c(N)c1 the data give mp 117 °C. For Nc1nc(SCc2ccccc2)n[nH]1 the data give mp 100 °C. Listed for Nc1cccc(-n2ccnc2)c1: mp 113 °C.

N#CCC(=O)NCCN1CCOCC1 has mp 71.5 °C. Listed for O=Cc1cc(O)c(O)c(Cl)c1: mp 235 °C. COc1ccc(SCCC(=O)O)cc1 is reported with mp 82 °C. O=C1CSC(N2CCCCC2)=N1 is reported with mp 78 °C. For CC(=O)c1ccc(NS(=O)(=O)c2ccc(C)cc2)cc1 the data give mp 171 °C. The entry for N#Cc1ccc2nc(N)sc2c1 lists mp 137.5 °C. The entry for Clc1ccc2c(Cl)ncnc2c1 lists mp 137 °C. The entry for N#Cc1nc(Cl)c(Cl)c(Cl)c1Cl lists mp 151 °C.

The entry for CC(=O)Oc1ccccc1C(=O)OCC(=O)N(C(C)C)C(C)C lists mp 108 °C. COc1c(Br)cc(Br)cc1C=O is reported with mp 94.5 °C. NC(=O)Cc1nc2ccccc2[nH]1 has mp 230 °C. O=C(O)COc1ccc(F)cc1Br has mp 143 °C. C=CCn1c(-c2ccoc2C)n[nH]c1=S is reported with mp 294 °C. The entry for CC(Oc1ccc2c(c1)CCC2)C(=O)O (configuration not stated) lists mp 104 °C. NC(=O)c1cnc(Cl)cn1 is reported with mp 167 °C. O=C(O)c1cc(F)c(F)c(Br)c1F is reported with mp 122.5 °C.

S=c1[nH]ccn1Cc1ccccc1 has mp 147 °C. For O=C1NC(=O)C2(CCc3ccccc32)N1 (configuration not stated) the data give mp 230 °C. CC(=O)c1ccc(-c2ccc(C(=O)O)o2)cc1 is reported with mp 220 °C. The entry for CCNS(=O)(=O)c1cccc(C(=O)O)c1 lists mp 200 °C. Cc1ccc(CNC(=O)C2CCNCC2)cc1 has mp 158 °C. For CS(=O)(=O)Nc1cccc(CN)c1 the data give mp 127 °C. Cc1ccccc1-n1nc(C(C)(C)C)cc1N is reported with mp 113 °C. For FC(F)(F)C(F)(F)C(F)(F)C(F)(F)C(F)(F)C(F)(F)C(F)(F)C(F)(F)CC1CO1 (configuration not stated) the data give mp 77 °C.

Listed for Cc1[nH]c2ccc(F)cc2c1CC(=O)O: mp 181 °C. CCOC(=O)c1[nH]c2c(c1C)C(=O)CCC2 is reported with mp 160 °C. O=C[C@H](O)[C@@H](O)[C@H](O)[C@H](S)CO has mp 136 °C. O=C(O)c1cccc(N2C(=O)CCC2=O)c1 has mp 238 °C. Listed for Cc1[nH]c(C(=O)O)c(C)c1C(=O)O: mp 245 °C. For O=C1N=c2ccc(Br)cc2=C1NO the data give mp 269 °C. For S=c1[nH]nc(Nc2ccccc2)s1 the data give mp 161 °C. The entry for S=c1nn[nH]n1-c1ccc(Cl)cc1 lists mp 163 °C.

Listed for Cl.FC1(F)CNCC1(F)F: mp 194.5 °C. Listed for CC1(C)[C@@H](/C=C(\Cl)c2ccc(Cl)cc2)[C@@H]1C(=O)O (relative stereo): mp 145 °C.

From the experimental data distributed with OPERA 2.9.